Results reported in ChEMBL document CHEMBL2062445, “Synthesis and nicotinic receptor activity of chemical space analogues of N-(3R)-1-azabicyclo[2.2.2]oct-3-yl-4-chlorobenzamide (PNU-282,987) and 1,4-diazabicyclo[3.2.2]nonane-4-carboxylic acid 4-bromophenyl ester (SSR180711)” (J Med Chem, 2012).
Some results for these compounds are left out of this collection, so the calls shown say nothing about other tests.

Chains of the proteins cited; added tags and fusions are not shown. Residues count along the entry.
UniProt P36544, 23-502 limits assumed: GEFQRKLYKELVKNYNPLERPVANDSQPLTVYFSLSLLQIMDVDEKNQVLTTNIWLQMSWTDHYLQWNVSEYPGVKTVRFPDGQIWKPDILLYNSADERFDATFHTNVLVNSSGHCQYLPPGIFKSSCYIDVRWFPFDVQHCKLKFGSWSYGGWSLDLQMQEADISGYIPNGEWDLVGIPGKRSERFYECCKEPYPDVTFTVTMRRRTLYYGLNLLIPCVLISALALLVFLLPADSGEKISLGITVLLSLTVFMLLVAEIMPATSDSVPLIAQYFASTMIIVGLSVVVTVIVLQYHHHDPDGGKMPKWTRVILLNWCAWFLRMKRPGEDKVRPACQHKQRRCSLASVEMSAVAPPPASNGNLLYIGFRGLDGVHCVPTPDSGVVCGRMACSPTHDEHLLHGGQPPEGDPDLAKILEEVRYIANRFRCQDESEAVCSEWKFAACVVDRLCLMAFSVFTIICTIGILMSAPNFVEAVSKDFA

Target: Neuronal acetylcholine receptor subunit alpha-7 (Homo sapiens, UniProt P36544)
Experiment: Antagonist activity at human alpha7 nAChR expressed in Xenopus oocyte assessed as inhibition of ACh-induced current at 10 uM after 30 secs by electrophysiological assay
Assay type: functional

Structure (SMILES)	inhibition
O=C(N[C@@H]1CCCC[C@H]1N1CCCCC1)c1ccc(Cl)cc1	64%
O=C(N[C@@H]1CCCC[C@H]1N1CCCCC1)c1ccc2ncsc2c1	79%
